Consider one substance from US20130289520A1, “TARGETED AND LIGHT-ACTIVATED CYTOSOLIC DRUG DELIVERY” (CHILDREN'S HOSPITAL BOSTON, priority 2010, published 2013).

Amino acid sequences for entries named in this document (tags omitted).
UniProt P08183, whole entry: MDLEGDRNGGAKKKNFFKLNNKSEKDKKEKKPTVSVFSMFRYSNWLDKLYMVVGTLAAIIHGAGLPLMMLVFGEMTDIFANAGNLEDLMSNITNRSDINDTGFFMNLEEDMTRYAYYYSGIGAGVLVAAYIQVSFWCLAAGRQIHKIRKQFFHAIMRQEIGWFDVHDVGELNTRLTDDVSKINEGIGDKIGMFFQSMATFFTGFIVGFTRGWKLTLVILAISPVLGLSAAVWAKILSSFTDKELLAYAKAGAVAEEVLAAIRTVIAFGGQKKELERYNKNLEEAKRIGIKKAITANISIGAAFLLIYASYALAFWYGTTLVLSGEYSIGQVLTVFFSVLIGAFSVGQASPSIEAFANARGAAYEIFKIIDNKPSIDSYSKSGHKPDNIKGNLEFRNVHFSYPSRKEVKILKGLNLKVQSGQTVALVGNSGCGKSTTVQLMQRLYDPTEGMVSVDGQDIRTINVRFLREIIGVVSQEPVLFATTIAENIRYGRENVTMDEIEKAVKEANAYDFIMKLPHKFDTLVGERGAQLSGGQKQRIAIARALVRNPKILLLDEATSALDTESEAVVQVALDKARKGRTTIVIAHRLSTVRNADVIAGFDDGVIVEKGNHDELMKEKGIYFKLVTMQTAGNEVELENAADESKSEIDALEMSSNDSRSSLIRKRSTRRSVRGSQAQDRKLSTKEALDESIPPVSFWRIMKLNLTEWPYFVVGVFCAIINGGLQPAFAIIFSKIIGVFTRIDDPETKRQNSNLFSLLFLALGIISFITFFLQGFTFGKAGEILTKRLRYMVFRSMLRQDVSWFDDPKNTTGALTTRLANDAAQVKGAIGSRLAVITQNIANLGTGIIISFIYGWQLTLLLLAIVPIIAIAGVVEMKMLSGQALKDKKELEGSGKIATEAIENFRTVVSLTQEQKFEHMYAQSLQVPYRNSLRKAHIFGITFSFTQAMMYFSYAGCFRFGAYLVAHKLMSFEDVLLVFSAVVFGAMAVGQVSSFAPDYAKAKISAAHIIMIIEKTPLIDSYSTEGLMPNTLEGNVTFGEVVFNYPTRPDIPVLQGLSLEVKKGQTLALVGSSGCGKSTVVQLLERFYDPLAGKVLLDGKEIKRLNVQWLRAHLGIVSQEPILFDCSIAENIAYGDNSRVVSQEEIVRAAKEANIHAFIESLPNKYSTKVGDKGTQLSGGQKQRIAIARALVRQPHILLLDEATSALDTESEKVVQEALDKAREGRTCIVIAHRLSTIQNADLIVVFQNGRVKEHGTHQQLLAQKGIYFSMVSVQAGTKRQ

The target in the series is P-glycoprotein-GFP (Homo sapiens, UniProt P08183). The note with it: 50 nM in D-PBS-glucose, 10 min, room temperature.

For the substance tetramethyl-rhodamine-esther [TMRE], the “substrate loading in P-glycoprotein-GFP-expressing cells” value was “complete extrusion of TMRE” and the “substrate loading in nontransfected cells” value is “high dye loading”.
